This is an account of results in patent US20050233973A1, “Tri-peptides for antidepressant applications” (priority 1997, published 2005).

Common to all, as to conditions: tracer 125I-TRH; assay standard = 1.00
Experiment [1] concerns 465B12 antibody (raised to TRH).
Experiment [2] concerns CR-V3-B53 antibody (raised to TRH).
In experiment [3] the test system is EEP (R^2=Glu) antibody (580B6).

As for `NC(=O)[C@@H]1CCCN1C(=O)[C@H](Cc1ccccc1)NC(=O)[C@@H]1CCC(=O)N1` [R^2 = Phe, pGlu-Phe-Pro-NH2], the “relative potency for displacement of assay tracer” value in experiment [1] is 6.79; in experiment [2], 0.738; in experiment [3], 6.53.
